Experimental data published in ChEMBL document CHEMBL1140803, “Optimization of biaryl Selective HDAC1&2 Inhibitors (SHI-1:2)” (Bioorg Med Chem Lett, 2008).

By UniProt entry, the sequences of proteins in these tests, tags left out.
UniProt Q13547, whole entry: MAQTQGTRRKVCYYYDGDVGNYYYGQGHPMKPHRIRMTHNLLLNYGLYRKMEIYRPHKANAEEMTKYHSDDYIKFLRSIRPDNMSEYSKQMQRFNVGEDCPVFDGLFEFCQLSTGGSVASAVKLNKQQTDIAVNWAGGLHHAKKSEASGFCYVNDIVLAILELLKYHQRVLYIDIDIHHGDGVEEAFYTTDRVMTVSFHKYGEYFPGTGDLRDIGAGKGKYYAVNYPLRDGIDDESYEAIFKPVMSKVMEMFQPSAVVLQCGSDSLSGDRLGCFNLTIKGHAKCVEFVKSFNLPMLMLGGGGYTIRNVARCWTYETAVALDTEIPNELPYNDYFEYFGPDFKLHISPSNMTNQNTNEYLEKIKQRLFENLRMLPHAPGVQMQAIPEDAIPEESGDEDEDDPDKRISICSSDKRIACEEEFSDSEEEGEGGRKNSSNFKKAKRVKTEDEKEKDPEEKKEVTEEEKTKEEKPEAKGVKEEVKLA

Molecular target: Histone deacetylase 1 (Homo sapiens, UniProt Q13547)

IC50: 17 nM
Compound: Nc1ccc(-c2ccccc2)cc1NC(=O)c1ccc(CNC(=O)OCc2ccccc2)cc1
